The list is not random: actives were taken first. Their share in the collection is about 0.46%.
GIV Gai3 FP – inhibitors of GIV peptide binding to Galpha-i3, primary screen, biochemical, fluorescence polarization, FITC-GIV GBA peptide, rat Galphai3 | 90 min; hits give low values; scaled: aluminum fluoride 0%, vehicle 100% | percent of control (FP), % (concentration not given with the values) | 210,000 compounds, 0.42% hits | AID 1224905, 2016;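 active = replicate mean at 85% of control or lower, very high polarization wells dropped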;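 also: wells of about 15 µL received 100 nL stock; the first replicate is given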
HCMV NEC inh – disrupts HCMV UL50-UL53 complex binding; actives 0.15% (n = 190,000); HTRF UL50-UL53 interaction, normalized percent inhibition; inhibition, % (test concentration not listed); in the data active means inhibition above about 27%, passing the limit was not always enough
The depositor's hits bear a star; nt = not tested or not shown.

SMILES	GIV Gai3 FP	HCMV NEC inh
CC(C)CN(CC(C)C)Cn1[nH]c(-c2cccs2)nc1=S	nt	-29
CCCCn1nnnc1COC(=O)c1c2c(nc3ccccc13)CCCCC2	nt	-21
CN(C)c1ccc(N=Cc2nc(-c3ccccc3)oc2OC(=O)c2ccccc2)cc1	nt	-30
CN(C)c1ccc(N=Cc2nc(-c3ccccc3)oc2O)cc1	-24*	nt
CC(C)CCNC(=O)CCc1nc2sc3c(c2c(=O)[nH]1)CCCCC3	103	-2
CCOc1cc(C=C2C(=O)N(C)C(=O)N(C)C2=O)ccc1OCCOc1ccc(C)cc1	106	61*
CCOc1cc(C=C2C(=O)N(C)C(=O)N(C)C2=O)ccc1OCCOc1ccccc1	108	17
Cc1[nH]c(C(=O)N2CCCC(C(=O)NCC3CCCO3)C2)c(C)c1C(=O)OC(C)C (stereo not given)	92	-26
Cc1ccc(C)c(N2CCN(C(=O)c3cccn4c(=O)c5ccccc5nc34)CC2)c1	104	nt
CCOC(=O)N1CCN(C(=O)c2cccn3c(=O)c4cc5ccccc5cc4nc23)CC1	24*	nt
CCOC(=O)C(C#N)c1c(F)c(F)c(Br)c(F)c1F (stereo not given)	nt	-18
Cc1noc(C)c1CSc1nc2ccccc2c(=O)n1C(C)C	nt	-9
CNc1nc(SCc2c(C)noc2C)nc2ccccc12	nt	51*
Cc1ccccc1Nc1nn2c(=O)c3ccc(C(=O)N4CCc5ccccc5C4)cc3nc2s1	103	-28
O=C(c1ccc(Nc2nn3c(=O)c4ccccc4nc3s2)cc1)N1CCc2ccccc2C1	101	56*
Cc1ccc(/C=c2/sc3nc(=O)cnn3c2=O)cc1	92	72*
COc1ccc(/C=c2/sc3nc(=O)cnn3c2=O)cc1	110	nt
CCn1c(C)[n+](CC)c2ccc(Cl)cc21	nt	7
CN1/C(=C/C=C/C=C/C=[N+](C)c2ccccc2)C(C)(C)c2ccccc21	258	nt
CN1/C(=C\C(=O)c2ccccc2)C(C)(C)c2ccccc21	nt	23
CC[n+]1c(/C=C/C=C2\N(C)c3ccccc3C2(C)C)n(-c2ccccc2)c2cc(Cl)ccc21	-32*	nt
CCn1c(/C=C/C=C2\N(C)c3ccccc3C2(C)C)[n+](Cc2ccccc2)c2ccccc21	-32*	nt
CC[n+]1c(/C=C/C=C2\N(C)c3ccccc3C2(C)C)n(-c2ccccc2)c2ccc(C)cc21	-32*	nt
CCCn1c(SCC(N)=O)nnc1C1CC1	109	-11
Cc1ccccc1C(=O)N1CCC(c2ccncc2)CC1	96	nt
CCOCCCn1c(SCc2ccc(C)cc2)nc2ccccc2c1=O	109	nt
Cc1cc(C)c2c(n1)SCCN2C(=O)Nc1ccc(C(=O)NCC2CCCO2)cc1 (stereo not given)	102	2
Cc1cccc(NC(=O)c2sc3nc(-c4cc5ccc(O)cc5oc4=O)[nH]c(=O)c3c2C)c1	-66*	-18
Cc1cc(C)cc(NC(=O)c2sc3nc(-c4cc5ccccc5oc4=O)[nH]c(=O)c3c2C)c1	98	-7
CC(=O)OCc1c(C)ccc(C2C(C#N)=C(N)OC(N)=C2C#N)c1C	-1.1*	nt
CCOC(=O)C1=C(C)OC(N)=C(C#N)C1c1ccc(O)cc1 (stereo not given)	101	-47
CCCc1ccc(S(=O)(=O)Nc2cccc(C(=O)N3CCCC(C(=O)NC4CCCC4)C3)c2)cc1 (stereo not given)	102	nt
C=CCNC(=O)C1CCCN(C(=O)c2cccc(NS(=O)(=O)c3ccc(C(C)C)cc3)c2)C1 (stereo not given)	-65*	nt
CCCCCN1/C(=C\C=C\c2n(CC)c3cc(Cl)c(Cl)cc3[n+]2CCCCC)N(CC)c2cc(Cl)c(Cl)cc21	-62*	nt
CCCCN1/C(=C/C=C/c2n(CCCC)c3cc(Cl)c(Cl)cc3[n+]2C)N(C)c2cc(Cl)c(Cl)cc21	37*	nt
C=CCn1c(/C=C/C=C2N(CC)c3cc(Cl)c(Cl)cc3N2CC)[n+](CCCS(=O)(=O)[O-])c2cc(Cl)c(Cl)cc21	169	nt
CC(=O)OCCN1C(=C/C=C/c2n(CCOC(C)=O)c3cc(Cl)c(Cl)cc3[n+]2CCOC(C)=O)N(CCOC(C)=O)c2cc(Cl)c(Cl)cc21	282	nt
Cc1nc(SCC(=O)c2cc(C)n(-c3ccccc3)c2C)c2ccsc2n1	103	7
CCn1nc(C)c(CCNC(=O)Cn2c(=O)c(=O)n(CC)c3ncccc32)c1C	98	nt
CN(C)c1ccc(/C=C(\C#N)c2nc3ccccc3c(=O)[nH]2)cc1	254	-43
CN(C)c1ccc(/C=C(\C#N)C(N)=C(C#N)C#N)cc1	-24*	nt
CN(C)c1ccc(/C=C(\C#N)C(N)=O)cc1	nt	-118
CN(C)c1ccc(/C=C(/C#N)c2ccc(C#N)cc2)cc1	11*	-10
Nc1c(C(=O)Nc2ccc(F)cc2)sc2nc(-c3cccs3)cc(C(F)(F)F)c12	-12*	-48
COc1ccc(NC(=O)c2sc3nc(-c4ccc(OC)cc4)cc(C(F)(F)F)c3c2N)cc1	96	-41
CCCc1ccc(S(=O)(=O)N2CCC3(CC2)NCCN=C3NCc2ccccc2)cc1	108	nt
N#Cc1c(S/C=C(\O)c2ccccc2)nc2c(c1C(F)(F)F)CCCC2	-44*	-41
N#Cc1c(N=CN2CCCCC2)nc2c(c1-c1ccccc1)CCCC2	101	-23

The last 7 compounds of the section above open the next one:
SMILES	GIV Gai3 FP	HCMV NEC inh
CN(C)c1ccc(/C=C(\C#N)C(N)=O)cc1	nt	-118
CN(C)c1ccc(/C=C(/C#N)c2ccc(C#N)cc2)cc1	11*	-10
Nc1c(C(=O)Nc2ccc(F)cc2)sc2nc(-c3cccs3)cc(C(F)(F)F)c12	-12*	-48
COc1ccc(NC(=O)c2sc3nc(-c4ccc(OC)cc4)cc(C(F)(F)F)c3c2N)cc1	96	-41
CCCc1ccc(S(=O)(=O)N2CCC3(CC2)NCCN=C3NCc2ccccc2)cc1	108	nt
N#Cc1c(S/C=C(\O)c2ccccc2)nc2c(c1C(F)(F)F)CCCC2	-44*	-41
N#Cc1c(N=CN2CCCCC2)nc2c(c1-c1ccccc1)CCCC2	101	-23
NC(=O)C1CCN(C(=O)c2cn(-c3ccccc3)nc2-c2cccs2)CC1	nt	-15
CSc1nc(-c2ccccc2)nc(Nc2ccccc2)c1C#N	102	-15
N#CCc1c(C#N)c(N)nc(Nc2ccccc2)c1C#N	nt	72*
COc1ccc(CNC(=O)C(C)N2CCN(c3ccc(C(F)(F)F)cn3)CC2)cc1 (stereo not given)	nt	-16
CCN1CC=C2C(C1)C(c1ccc(Cl)s1)C(C#N)=C(N)C2(C#N)C#N (stereo not given)	-52*	-29
CCCN1CC=C2C(C1)C(c1ccc(C(=O)OC)cc1)C(C#N)=C(N)C2(C#N)C#N (stereo not given)	110	-56
O=C1CCNc2cc3ccccc3cc21	119	-73
O=C1CCNc2ccc(-c3ccccc3)cc21	14*	-58
CCc1ccc(/C=C(/C#N)C(=O)OC)s1	102	-86
O=c1[nH]c2cc3c(cc2c(=O)n1CCCc1nc(-c2ccccc2Cl)no1)OCO3	104	-3
Cc1ccc(S(=O)(=O)N(C)CC(=O)N2CCC(Cc3ccccc3)CC2)cc1	nt	-24
CC(C)N1CCc2c(sc(NC(=O)C3=COCCO3)c2C(N)=O)C1	278	-63
CC(C)N1CCc2c(sc(N)c2C(N)=O)C1	-67*	nt
O=C(CSc1nnc2c3sc(N4CCCC4)nc3ncn12)Nc1ccc2c(c1)OCCO2	99	nt
CC(=O)N1CC=C2C(C#N)=C(N)C(C#N)(C#N)C(Cc3ccccc3)C2C1 (stereo not given)	101	-24
N#CC1=C(N)C(C#N)(C#N)C(c2ccc(Br)cc2)C2CN(Cc3ccccc3)CC=C12 (stereo not given)	165	nt
N#CC1=C(N)C(C#N)(C#N)C(c2ccc(Cl)cc2)C2CN(Cc3ccccc3)CC=C12 (stereo not given)	-58*	nt
CC(C)CC1C2CN(Cc3ccccc3)CC=C2C(C#N)=C(N)C1(C#N)C#N (stereo not given)	121	-27
CCCC1C2CN(Cc3ccccc3)CC=C2C(C#N)=C(N)C1(C#N)C#N (stereo not given)	20*	-43
CN1CC=C2C(C#N)=C(N)C(C#N)(C#N)C(CCc3ccccc3)C2C1 (stereo not given)	-8.8*	-34

Bioassay records from PubChem BioAssay.
